## Permeability data for macrocyclic peptides

Data: CycPeptMPDB; original report Townsend et al. 2020, doi:10.26434/chemrxiv.13335941.v1.

PAMPA is the parallel artificial membrane permeability assay, which has no cells and reads passive diffusion. P is given in units of 10^-6 cm/s (from log10 values with two decimals); larger means faster passage.

compound,PAMPA (10^-6 cm/s)
CC(C)C[C@@H]1NC(=O)[C@H]2CCCN2C(=O)CN(Cc2ccccc2)C(=O)[C@H](CC(C)C)N(C)C(=O)[C@@H](C)N(C)C(=O)[C@H]2CCCN2C(=O)[C@H](Cc2ccccc2)NC1=O,0.45
CC(C)C[C@@H]1NC(=O)[C@H](CC(C)C)N(C)C(=O)C[C@H](Cc2ccccc2)NC(=O)[C@H](Cc2ccccc2)NC(=O)CN(Cc2ccccc2)C(=O)[C@@H]2CCCN2C1=O,4.1
CC(C)C[C@@H]1C(=O)N[C@@H](Cc2ccccc2)C(=O)N2CCC[C@H]2C(=O)N[C@H](C)C(=O)N(Cc2ccccc2)CC(=O)N[C@@H](Cc2ccccc2)CC(=O)N2CCC[C@H]2C(=O)N1C,0.81
CC(C)C[C@@H]1NC(=O)[C@@H](CC(C)C)N(C)C(=O)C[C@H](Cc2ccccc2)NC(=O)[C@H]2CCCN2C(=O)[C@H](Cc2ccccc2)NC(=O)[C@@H](CC(C)C)N(C)C(=O)[C@@H]2CCCN2C1=O,4.9
CC(C)C[C@H]1NC(=O)[C@@H]2CCCN2C(=O)[C@H](CC(C)C)N(C)C(=O)[C@H](CC(C)C)N(C)C(=O)[C@@H](C)N(C)C(=O)[C@H]2CCCN2C(=O)[C@H](Cc2ccccc2)NC1=O,0.049
CC(C)C[C@H]1NC(=O)[C@@H](C)N(C)C(=O)[C@H]2CCCN2C(=O)[C@H](Cc2ccccc2)NC(=O)CN(Cc2ccccc2)C(=O)[C@H]2CCCN2C(=O)CN(Cc2ccccc2)C1=O,0.17
CCCN1CC(=O)N[C@@H](CC(C)C)C(=O)N(Cc2ccccc2)CC(=O)N2CCC[C@H]2C(=O)N(C)[C@@H](CC(C)C)C(=O)N[C@@H](Cc2ccccc2)C(=O)N2CCC[C@H]2C1=O,3.8
CC(C)C[C@@H]1NC(=O)C[C@H](Cc2ccccc2)NC(=O)[C@@H]2CCCN2C(=O)[C@H](Cc2ccccc2)NC(=O)CN(Cc2ccccc2)C(=O)[C@H]2CCCN2C(=O)[C@@H](CC(C)C)N(C)C1=O,2.3
CC(C)C[C@@H]1NC(=O)[C@H](CC(C)C)N(C)C(=O)[C@H](C)N(C)C(=O)[C@H]2CCCN2C(=O)[C@H](Cc2ccccc2)NC(=O)[C@@H](CC(C)C)N(C)C(=O)[C@H]2CCCN2C1=O,2.6
CC(C)C[C@@H]1NC(=O)[C@@H]2CCCN2C(=O)[C@@H](CC(C)C)N(C)C(=O)[C@@H](CC(C)C)NC(=O)[C@@H](C)N(C)C(=O)[C@H]2CCCN2C(=O)[C@H](Cc2ccccc2)NC1=O,0.56
CC(C)C[C@@H]1NC(=O)[C@H](C)NC(=O)[C@@H]2CCCN2C(=O)[C@H](Cc2ccccc2)NC(=O)CN(Cc2ccccc2)C(=O)[C@@H]2CCCN2C(=O)CN(Cc2ccccc2)C1=O,0.66
CC(C)C[C@@H]1C(=O)N2CCC[C@@H]2C(=O)N(C)[C@@H](CC(C)C)C(=O)N[C@@H](Cc2ccccc2)C(=O)N2CCC[C@@H]2C(=O)N(C)[C@@H](C)C(=O)N[C@H](CC(C)C)C(=O)N1C,8.5
CCCN1CC(=O)N[C@H](CC(C)C)C(=O)N[C@@H](CC(C)C)C(=O)N2CCC[C@H]2C(=O)N(C)[C@@H](CC(C)C)C(=O)N[C@@H](Cc2ccccc2)C(=O)N2CCC[C@@H]2C1=O,6.3
CC(C)C[C@@H]1NC(=O)C[C@H](Cc2ccccc2)NC(=O)[C@H](Cc2ccccc2)NC(=O)[C@H](CC(C)C)N(C)C(=O)[C@H]2CCCN2C(=O)[C@H](CC(C)C)N(C)C1=O,8.1
CC(C)C[C@H]1C(=O)N(C)[C@@H](CC(C)C)C(=O)N2CCC[C@H]2C(=O)N(Cc2ccccc2)CC(=O)N[C@@H](Cc2ccccc2)C(=O)N2CCC[C@H]2C(=O)N[C@H](C)C(=O)N1C,4
CCCN1CC(=O)N(C)[C@H](CC(C)C)C(=O)N[C@H](CC(C)C)C(=O)N2CCC[C@@H]2C(=O)N[C@@H](CC(C)C)C(=O)N[C@@H](Cc2ccccc2)C(=O)N2CCC[C@H]2C1=O,0.38
CC(C)C[C@@H]1NC(=O)[C@H](C)NC(=O)[C@H](Cc2ccccc2)NC(=O)[C@@H](CC(C)C)NC(=O)[C@H]2CCCN2C(=O)CN(Cc2ccccc2)C1=O,0.2
CC(C)C[C@@H]1NC(=O)[C@@H](CC(C)C)N(C)C(=O)[C@H](C)N(C)C(=O)[C@H](Cc2ccccc2)NC(=O)[C@@H](CC(C)C)NC(=O)[C@H]2CCCN2C1=O,3.1
CC(C)C[C@@H]1C(=O)N2CCC[C@H]2C(=O)N(C)[C@@H](CC(C)C)C(=O)N[C@@H](Cc2ccccc2)C(=O)N2CCC[C@H]2C(=O)N(C)[C@@H](C)C(=O)N[C@H](CC(C)C)C(=O)N1C,8.7
CC(C)C[C@@H]1NC(=O)[C@H]2CCCN2C(=O)[C@@H](CC(C)C)N(C)C(=O)[C@H](CC(C)C)NC(=O)[C@@H](C)NC(=O)[C@H](Cc2ccccc2)NC1=O,0.71
CC(C)C[C@@H]1NC(=O)[C@@H](C)N(C)C(=O)[C@H]2CCCN2C(=O)[C@H](Cc2ccccc2)NC(=O)[C@H](CC(C)C)N(C)C(=O)[C@@H]2CCCN2C(=O)[C@H](CC(C)C)N(C)C1=O,6.2
CCCN1CC(=O)N(Cc2ccccc2)CC(=O)N(C)[C@@H](CC(C)C)C(=O)N2CCC[C@@H]2C(=O)N[C@@H](CC(C)C)C(=O)N[C@@H](Cc2ccccc2)C(=O)N2CCC[C@@H]2C1=O,5.4
CCCN1CC(=O)N(C)[C@@H](CC(C)C)C(=O)N[C@H](CC(C)C)C(=O)N2CCC[C@@H]2C(=O)N[C@H](CC(C)C)C(=O)N[C@@H](Cc2ccccc2)C1=O,6.5

Extract of 3 entries:

compound,PAMPA (10^-6 cm/s)
CC(C)C[C@@H]1NC(=O)[C@@H]2CCCN2C(=O)[C@@H](CC(C)C)N(C)C(=O)[C@@H](CC(C)C)NC(=O)[C@@H](C)N(C)C(=O)[C@H]2CCCN2C(=O)[C@H](Cc2ccccc2)NC1=O,0.56
CCCN1CC(=O)N[C@H](CC(C)C)C(=O)N[C@@H](CC(C)C)C(=O)N2CCC[C@H]2C(=O)N(C)[C@@H](CC(C)C)C(=O)N[C@@H](Cc2ccccc2)C(=O)N2CCC[C@@H]2C1=O,6.3
CC(C)C[C@@H]1NC(=O)[C@@H](CC(C)C)N(C)C(=O)[C@H](C)N(C)C(=O)[C@H](Cc2ccccc2)NC(=O)[C@@H](CC(C)C)NC(=O)[C@H]2CCCN2C1=O,3.1

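Lipid, pH, incubation time, direction and concentration are not recorded in the data file. The list need not hold all peptides of the study. Peptides that the database sets to -10, its floor, are left out.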